For two compounds, IC50 results are on record in ChEMBL document CHEMBL1134157, “General synthesis of alpha-substituted 3-bisaryloxy propionic acid derivatives as specific MMP inhibitors” (Bioorg Med Chem Lett, 2001).

The assay deals with T1, Interstitial collagenase (Homo sapiens, UniProt P03956).
T1 sequence (P03956 whole entry): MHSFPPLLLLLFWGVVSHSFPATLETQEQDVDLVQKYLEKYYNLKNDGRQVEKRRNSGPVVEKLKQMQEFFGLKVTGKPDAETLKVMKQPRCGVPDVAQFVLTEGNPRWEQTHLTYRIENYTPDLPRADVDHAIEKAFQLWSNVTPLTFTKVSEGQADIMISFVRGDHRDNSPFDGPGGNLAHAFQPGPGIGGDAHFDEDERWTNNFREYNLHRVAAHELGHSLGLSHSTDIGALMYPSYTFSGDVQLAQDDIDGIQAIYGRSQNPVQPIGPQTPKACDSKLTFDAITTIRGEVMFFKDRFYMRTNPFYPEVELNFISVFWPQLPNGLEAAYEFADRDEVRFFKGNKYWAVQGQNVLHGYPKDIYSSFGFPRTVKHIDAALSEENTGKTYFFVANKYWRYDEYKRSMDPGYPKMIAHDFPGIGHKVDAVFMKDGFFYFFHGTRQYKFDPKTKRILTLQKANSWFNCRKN
Nature of the assay: Inhibition of Matrix metalloprotease-1.

Broadly, the IC50 is the concentration needed to halve the response being measured. The compound `O=C(NO)C(CCn1nnc2ccccc2c1=O)COCCc1ccc(-c2ccc(Cl)cc2)cc1` (configuration not stated) showed an IC50 of 9.5 µM.
As for `O=C(NO)C(CCn1c(=O)[nH]c2ccccc2c1=O)COc1ccc(-c2ccccc2)cc1` (configuration not stated), the figure is 2.85 µM.
